Measurements reported in patent US20250243196A1, “CITRON KINASE INHIBITORS” (The Cleveland Clinic Foundation, priority 2021, published 2025).

Amino acid sequences for entries named in this document (tags omitted). A change or cut given only in a name is not applied to a line headed by its entry.
UniProt Q9HBH9: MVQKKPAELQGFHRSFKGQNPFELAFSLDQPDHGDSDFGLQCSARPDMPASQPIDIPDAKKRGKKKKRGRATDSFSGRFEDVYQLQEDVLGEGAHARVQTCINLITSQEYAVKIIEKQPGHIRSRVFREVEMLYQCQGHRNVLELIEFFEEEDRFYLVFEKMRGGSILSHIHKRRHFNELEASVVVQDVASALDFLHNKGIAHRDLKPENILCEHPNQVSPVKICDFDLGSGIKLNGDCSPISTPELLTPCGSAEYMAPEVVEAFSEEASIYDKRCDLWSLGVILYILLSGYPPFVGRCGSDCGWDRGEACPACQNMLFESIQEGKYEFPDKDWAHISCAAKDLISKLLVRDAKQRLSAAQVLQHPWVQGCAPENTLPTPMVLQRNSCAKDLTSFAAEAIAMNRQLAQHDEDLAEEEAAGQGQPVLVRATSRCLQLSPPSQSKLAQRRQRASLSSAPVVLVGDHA
UniProt Q8NE63: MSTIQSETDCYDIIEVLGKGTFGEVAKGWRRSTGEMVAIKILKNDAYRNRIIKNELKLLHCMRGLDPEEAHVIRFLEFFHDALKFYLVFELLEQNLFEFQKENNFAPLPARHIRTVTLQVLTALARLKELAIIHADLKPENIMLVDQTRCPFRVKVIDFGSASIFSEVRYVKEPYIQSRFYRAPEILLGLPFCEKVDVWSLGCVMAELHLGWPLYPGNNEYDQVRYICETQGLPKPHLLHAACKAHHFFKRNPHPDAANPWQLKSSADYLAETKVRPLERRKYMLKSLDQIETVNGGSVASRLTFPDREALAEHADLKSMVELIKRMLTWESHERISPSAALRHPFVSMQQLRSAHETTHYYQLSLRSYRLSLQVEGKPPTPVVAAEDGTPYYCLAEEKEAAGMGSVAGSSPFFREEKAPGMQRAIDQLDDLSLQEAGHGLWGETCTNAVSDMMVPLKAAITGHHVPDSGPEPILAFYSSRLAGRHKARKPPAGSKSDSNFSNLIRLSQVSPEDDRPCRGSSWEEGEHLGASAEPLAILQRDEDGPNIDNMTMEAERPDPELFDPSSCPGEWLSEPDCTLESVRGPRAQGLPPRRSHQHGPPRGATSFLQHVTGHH
UniProt Q2M2I8: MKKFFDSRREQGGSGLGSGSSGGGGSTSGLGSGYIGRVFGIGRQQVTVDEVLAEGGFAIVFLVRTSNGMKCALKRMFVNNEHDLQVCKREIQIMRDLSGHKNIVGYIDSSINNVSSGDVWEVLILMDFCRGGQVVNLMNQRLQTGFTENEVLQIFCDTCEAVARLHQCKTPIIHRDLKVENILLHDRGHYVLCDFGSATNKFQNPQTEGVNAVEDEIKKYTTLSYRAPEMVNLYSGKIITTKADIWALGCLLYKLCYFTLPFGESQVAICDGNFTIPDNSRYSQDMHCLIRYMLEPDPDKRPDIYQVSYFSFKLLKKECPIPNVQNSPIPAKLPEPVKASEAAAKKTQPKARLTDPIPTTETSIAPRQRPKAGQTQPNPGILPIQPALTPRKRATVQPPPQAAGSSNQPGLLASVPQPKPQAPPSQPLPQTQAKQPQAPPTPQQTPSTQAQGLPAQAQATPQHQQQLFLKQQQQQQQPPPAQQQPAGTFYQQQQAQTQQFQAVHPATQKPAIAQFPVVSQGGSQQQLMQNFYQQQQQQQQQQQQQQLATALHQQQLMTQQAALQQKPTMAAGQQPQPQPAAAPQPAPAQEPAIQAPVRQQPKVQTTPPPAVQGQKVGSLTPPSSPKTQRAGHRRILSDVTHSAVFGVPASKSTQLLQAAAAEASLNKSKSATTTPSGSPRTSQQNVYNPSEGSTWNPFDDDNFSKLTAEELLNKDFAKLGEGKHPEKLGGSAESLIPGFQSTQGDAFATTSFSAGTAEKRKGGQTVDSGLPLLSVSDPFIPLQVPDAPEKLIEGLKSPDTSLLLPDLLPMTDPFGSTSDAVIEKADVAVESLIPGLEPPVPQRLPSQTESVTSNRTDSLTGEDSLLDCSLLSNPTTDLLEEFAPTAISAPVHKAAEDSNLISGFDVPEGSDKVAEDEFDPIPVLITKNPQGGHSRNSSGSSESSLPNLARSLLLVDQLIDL

Legend:
Experiment in all cases: KinaseProfiler panel
Format in all cases: biochemical
Set-up in all cases: dose or concentration left out as unconfirmed
Conditions in all cases: activity remaining
Mnk2(h) = Mnk2(h) (Homo sapiens (Human), UniProt Q9HBH9)
HIPK4(h) = HIPK4(h) (Homo sapiens (Human), UniProt Q8NE63)
AAK1(h) = AAK1(h) (Homo sapiens (Human), UniProt Q2M2I8)

Cc1cc2c(-c3ccc(NC(=O)[C@H](N)CC(C)(C)C)cc3C)ccnc2[nH]1 [Compound F-90, (2R)-2-Amino-4,4-dimethyl-N-[3-methyl-4-(2-methyl-1H-pyrrolo[2,3-b]pyridin-4-yl)phenyl]pentanamide]
% Activity (Mnk2(h)): 35%
% Activity (HIPK4(h)): 52%
% Activity (AAK1(h)): 13%
